Only a part is listed here, and it is no random draw. The source made the active and inactive calls. Calls come from the whole dose curve; as a rule, active = well fitted inhibition curve with a large enough effect; inconclusive = small, poorly fitted or top-dose-only effect; inactive = no such curve, though single readings can be large or run the other way.

Sequences of proteins named here, by UniProt entry; tags and fusion partners are left off. A change or cut given only in a name is not applied to a line headed by its entry.
UniProt P17405: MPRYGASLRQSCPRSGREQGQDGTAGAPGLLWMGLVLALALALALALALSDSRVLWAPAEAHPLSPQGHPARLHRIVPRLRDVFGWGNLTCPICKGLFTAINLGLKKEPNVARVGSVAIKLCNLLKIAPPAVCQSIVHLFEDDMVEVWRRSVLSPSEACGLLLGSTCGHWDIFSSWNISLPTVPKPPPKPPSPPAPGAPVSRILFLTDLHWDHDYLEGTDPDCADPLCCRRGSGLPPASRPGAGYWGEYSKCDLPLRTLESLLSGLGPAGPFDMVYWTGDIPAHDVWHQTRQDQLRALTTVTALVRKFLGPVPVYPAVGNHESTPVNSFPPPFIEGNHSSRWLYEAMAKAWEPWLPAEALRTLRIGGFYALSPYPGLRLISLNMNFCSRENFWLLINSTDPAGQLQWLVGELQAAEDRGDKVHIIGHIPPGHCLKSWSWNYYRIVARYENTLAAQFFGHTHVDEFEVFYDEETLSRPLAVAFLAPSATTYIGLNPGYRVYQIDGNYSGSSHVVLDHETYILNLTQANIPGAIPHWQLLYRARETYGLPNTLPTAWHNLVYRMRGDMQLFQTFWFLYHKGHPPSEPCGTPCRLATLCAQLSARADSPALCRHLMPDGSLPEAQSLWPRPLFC

The assay has as its target Sphingomyelin phosphodiesterase (Homo sapiens) (UniProt P17405). Put plainly: Inhibitors of Secretory Acid Sphingomyelinase (S-ASM): qHTS. Conditions: placental ASM, HMU-PC fluorogenic substrate (series up to 57.5 µM), 60 min; at 57.5 µM (top of the series).
Regarding `COc1ccc(C2=NCC(CBr)S2)cc1` (stereo not drawn), the activity change, negative = inhibition was inactive: 1.08%.
For `CC(=O)N1C2C3N(C(C)=O)C1C1N(C(C)=O)C(C(N1C(C)=O)N3C(C)=O)N2C(C)=O`, the activity change, negative = inhibition is inactive: 2.98%.
As to `O=[N+]([O-])c1cccc2n[nH]nc12`, the activity change, negative = inhibition is inactive: 3.4%.
In the case of `O=[N+]([O-])c1cc([N+](=O)[O-])c(CCNc2ccccc2)c([N+](=O)[O-])c1`, the activity change, negative = inhibition was inactive: -0.705%.
For `CCc1nc2c(n1)c1c(non1O)c1c2no[n+]1[O-]`, the activity change, negative = inhibition is inactive: -0.595%.
For `Cc1ccc(NP(=O)(Oc2ccccc2)Oc2ccccc2)nc1`, the activity change, negative = inhibition was inactive: 4.2%.
Turning to `C[N+]1=C2C=CC=CC=C2SC12C([N+](=O)[O-])=CC([N+](=O)[O-])=C[C-]2[N+](=O)[O-]` (stereo not drawn), the activity change, negative = inhibition was inactive: -12.3%.
Next, `Nc1ccc([As](=O)(O)c2ccc(N)cc2)cc1`: inactive: 3.98%; `CCN(/C(=N/P(=O)(N1CCOCC1)N1CCOCC1)N1CCOCC1)c1ccc(OC)cc1`: inactive: 3.87%.
For `CN(C)C(=O)OCCc1n(C)cc[n+]1C`, the activity change, negative = inhibition is inactive: 4.66%.
Turning to `CC(C)=N/N=C(\N)N[N+](=O)[O-]`, the activity change, negative = inhibition is inactive: 2.98%.
For the compound `CC1CCN(C(=O)Oc2c(Cl)cc(Cl)c3cccnc23)CC1`, the activity change, negative = inhibition is inactive: -3.54%.
Turning to `O=P1(N(CCCl)CCCl)OCCCS1` (stereo not drawn), the activity change, negative = inhibition is inactive: 5.15%.
In the case of `CC(C)(C)C(=O)NC(Sc1ccncn1)C(Cl)(Cl)Cl` (stereo not drawn), the activity change, negative = inhibition is inactive: -1.08%.
For `O=[N+]([O-])c1ncn(CCn2ncnc2[N+](=O)[O-])n1`, the activity change, negative = inhibition is inactive: -2.7%.
As to `COC(=O)C1(C)COP(=O)(Nc2ccccc2)OC1` (stereo not drawn), the activity change, negative = inhibition was inactive: 2.18%.
As for `O=[N+]([O-])c1cccc(NC2=NCC(CBr)S2)c1` (stereo not drawn), the activity change, negative = inhibition is inactive: -9.64%.
As for `O=C(O)CNc1ccc([As](=O)(O)O)cc1`, the activity change, negative = inhibition is inactive: -0.401%.
Regarding `COc1ccc(N)c([N+](=O)[O-])c1[N+](=O)[O-]`, the activity change, negative = inhibition is inactive: -4.22%.
With `CN(C)C1(CNC(=O)c2ccc(Cl)c(S(N)(=O)=O)c2)CCCCC1`, the activity change, negative = inhibition is inactive: -3.35%.
With `O=P(Nc1ccccn1)(c1ccc(Br)cc1)c1ccc(Br)cc1`, the activity change, negative = inhibition was inactive: -1.59%.
For `C[C@H]1OP(=O)(Oc2ccccc2)[C@H](O)[C@H](O)[C@H]1N=[N+]=[N-]` (stereo partly drawn), the activity change, negative = inhibition was inactive: -6.24%.
For the compound `O=P(Nc1nc2ccccc2s1)(c1ccccc1)c1ccccc1`, the activity change, negative = inhibition was inactive: 3.28%.
Next, `CC(=O)NC(SC(=S)N(C)C)C(Cl)(Cl)Cl` (stereo not drawn): inactive: 1.4%; `O=[N+]([O-])c1ncn(CCn2cnc([N+](=O)[O-])n2)n1`: inactive: 0.615%; `O=[N+]([O-])c1ccc(O)c(/C=N/Nc2ccc([N+](=O)[O-])cc2[N+](=O)[O-])c1`: inactive: -7.77%.
As to `O=[As](O)(c1ccccc1)c1ccc(O)cc1`, the activity change, negative = inhibition is inactive: 0.0863%.
With `C(Cc1nn[nH]n1)Cc1nn[nH]n1` the figure was inactive: 3.03%; with `Nc1ccc([As](=O)(O)c2ccc([N+](=O)[O-])cc2)cc1`, inactive: 1.29%.
As to `O=C(OC1CN2CCC1CC2)c1cccc(Cl)c1` (stereo not drawn), the activity change, negative = inhibition is inactive: -1.1%.
Consider `O=P(Nc1nccs1)(c1ccccc1)c1ccccc1`, for which the activity change, negative = inhibition is inactive: 4.1%.
As to `CC(C)C(=O)NC(Sc1ccccc1)C(Cl)(Cl)Cl` (stereo not drawn), the activity change, negative = inhibition is inactive: -3.23%.
For `c1nnnn1CCn1cnnn1`, the activity change, negative = inhibition was inactive: -0.164%.
With `CCOc1ccc(C2=NCC(CBr)S2)cc1` (stereo not drawn) the figure was inactive: 6.04%.
For `CCc1cc(O)c([N+](=O)[O-])c(C)c1[N+](=O)[O-]`, the activity change, negative = inhibition was inactive: -5.16%.
For the compound `CC(C)(C)C(=O)NC(Sc1ccccc1)C(Cl)(Cl)Cl` (stereo not drawn), the activity change, negative = inhibition is inactive: 0.999%.
Regarding `COC(=O)C1(C)COP(=O)(NCc2ccccc2)OC1` (stereo not drawn), the activity change, negative = inhibition is inactive: 0.592%.
On to `CC(=O)c1ccc(N2CC2c2ccncc2)cc1` (stereo not drawn), for which the activity change, negative = inhibition is inactive: -2.53%.
As for `N#C/C(=C\c1ccc(N(CCBr)CCBr)cc1)C(N)=O`, the activity change, negative = inhibition was inactive: 42%.
Regarding `C[C@H]1OP(=O)(Oc2ccccc2)C[C@@H]2O[C@@H]21` (stereo partly drawn), the activity change, negative = inhibition is inactive: 9.98%.
With `C[C@@H]1C=CCP(=O)(Oc2ccccc2)O1` (stereo partly drawn) the figure was inactive: 14.6%; with `Cc1ccccc1CN(C)C(=O)COC(=O)C(O)(c1ccccc1)c1ccccc1`, inactive: -2.63%; with `CC(=O)Nc1ccc(Oc2c([N+](=O)[O-])cc([N+](=O)[O-])cc2[N+](=O)[O-])cc1`, inactive: -9.18%.
Take `CC(=O)Nc1ccc([As](=O)(O)O)c(O)c1`: the activity change, negative = inhibition is inactive: -12.1%.
Next, `O=C(NC1CCS(=O)(=O)C1)NP(=S)(Oc1ccccc1)Oc1ccccc1` (stereo not drawn): inactive: -3.83%; `CCNC(=S)/N=C(\N)N[N+](=O)[O-]`: inactive: -1.63%; `Cc1ccc(NP(=O)(Oc2cccc(C)c2)Oc2cccc(C)c2)nc1`: inactive: -1.74%.
On to `c1ccc(-c2nn[nH]n2)c(-c2nn[nH]n2)c1`, for which the activity change, negative = inhibition was inactive: 1.85%.
Take `O=P1(N(CCCl)CCCl)OCCC2CCCCN21` (stereo not drawn): the activity change, negative = inhibition is inactive: 2.32%.
Consider `CC(=O)NC(SC(=S)N(CC(C)C)CC(C)C)C(Cl)(Cl)Cl` (stereo not drawn), for which the activity change, negative = inhibition is inactive: 0.0902%.
With `Cc1ccc(OP(=O)(Nc2ccccn2)Oc2ccc(C)cc2)cc1`, the activity change, negative = inhibition was inactive: 10.8%.
With `COC(=O)c1cc2c(s1)N=C(c1ccccc1)N(C)P2(=O)N1CCOCC1` (stereo not drawn) the figure was inactive: -1.08%.
As to `CCC(=O)N1C2C3N(C(=O)CC)C1C1N(C(=O)CC)C(C(N1C(=O)CC)N3C(=O)CC)N2C(=O)CC`, the activity change, negative = inhibition was inactive: 0.124%.
For `O=C(OC1CN2CCC1CC2)c1ccccc1` (stereo not drawn), the activity change, negative = inhibition was inactive: -5.16%.
In the case of `O=c1c2cc([N+](=O)[O-])ccc2[nH]c2c([N+](=O)[O-])cc([N+](=O)[O-])cc12`, the activity change, negative = inhibition was inactive: -17.6%.
As for `CN(C)C(=O)Oc1noc2ccccc12`, the activity change, negative = inhibition was inactive: 8.18%.
Consider `CC(NC(=O)COC(=O)C(O)(c1ccccc1)c1ccccc1)c1ccccc1` (stereo not drawn), for which the activity change, negative = inhibition was inactive: -3.76%.
Regarding `Cc1ccccc1OP(=O)(Nc1ccccn1)Oc1ccccc1C`, the activity change, negative = inhibition is inactive: 0.242%.

The values above are taken from PubChem BioAssay AID504937 (National Center for Advancing Translational Sciences (NCATS), 2011).
